Values of other authors as cited in patent US20150313892A1, “PHARMACEUTICAL COMPOSITIONS FOR TREATING PAIN ASSOCIATED WITH DYSMENORRHEA” (priority 2014, published 2015).

By UniProt entry, the sequences of proteins in these tests, tags left out.
UniProt P35372, whole entry: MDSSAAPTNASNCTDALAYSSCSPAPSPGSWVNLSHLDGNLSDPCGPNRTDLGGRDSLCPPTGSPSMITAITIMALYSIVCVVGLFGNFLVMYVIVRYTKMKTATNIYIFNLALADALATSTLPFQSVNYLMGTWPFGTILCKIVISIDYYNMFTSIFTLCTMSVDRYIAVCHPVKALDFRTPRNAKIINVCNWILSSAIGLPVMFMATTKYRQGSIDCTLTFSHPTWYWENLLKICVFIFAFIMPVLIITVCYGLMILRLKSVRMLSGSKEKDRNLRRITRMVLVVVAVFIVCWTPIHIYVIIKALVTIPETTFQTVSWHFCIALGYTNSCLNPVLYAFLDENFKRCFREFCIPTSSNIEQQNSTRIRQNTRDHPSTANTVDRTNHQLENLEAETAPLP

What was measured:
[1] = target: μ-opioid (Homo sapiens, UniProt P35372); details: read-out: Binding Constant Ki, μ-opioid; cited from earlier work
[2] = test system: common receptor sites (benzodiazepine, glutamate, NMDA, adrenergic, adenosine, cholinergic, dopamine, histamine H1, serotonin, opiate, cannabinoid 1, calcium …); details: concentrations up to 100 μM; cited from earlier work

| Compound | Ki [1] [nM] | affinity for other common receptor sites [2] |
| --- | --- | --- |
| CN1CC[C@@]23CCCC[C@@H]2[C@@H]1Cc1ccc(O)cc13 [Dextrorphan] | 420 | – |
| NCC1(CC(=O)O)CCCCC1 [Gabapentin] | – | did not exhibit affinity |
| CN1CC[C@]23CCCC[C@H]2[C@H]1Cc1ccc(O)cc13 [Levorphanol] | 0.42 | – |
